In patent publication US20220296584A1, “Membrane Active Molecules” (priority 2017, published 2022):
Read-outs that look alike come from different tables or passages of the source.

System: mice
Conditions: intravenously

**Q.** With ethyl isovaleric acid as the substance, how does the Lethality (250 mM solution in intralipid) read?
**A.** Its Lethality is “lethal”.

**Q.** And the Lethality (1M solution in intralipid)?
**A.** The Lethality was “lethal”.
